Measurements: PMC4124904 (British journal of haematology, 2010)

Assay: Pharmacokinetic analysis of vorinostat and two metabolites
Assay type: in vivo, human
Conditions: with idarubicin
In short: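 Relapsed/refractory leukaemia patients self-dosed oral HDAC inhibitor TID for 14 days (arm A) or 3 days (arm B), 3+3 escalation from 100 mg, with anthracycline 12 mg/m2 IV over 30 min on days 1–3. Blood clotted 20–30 min at 4°C, spun 2,000 × g 15 min at 4°C, serum stored at -70°C. Parent, glucuronide and acid metabolites (metabolites in first 19 patients) measured by validated LC-ESI-MS/MS. Dosing times unrecorded, so only Cmax and Tmax were derived.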

vorinostat-glucuronide
Glucuronide metabolite Mean Tmax (vorinostat 100 mg TID for 3 days oral): 2.2 h | Glucuronide metabolite Mean Tmax (vorinostat 100 mg TID for 14 days oral): 2.8 h | Glucuronide metabolite Mean Tmax (vorinostat 200 mg TID for 3 days oral): 2.3 h | Glucuronide metabolite Mean Tmax (vorinostat 300 mg TID for 3 days oral): 2.5 h | Glucuronide metabolite Mean Tmax (vorinostat 400 mg TID for 3 days oral, metabolites measured in only 1 patient): 1 h
